Test results from US20060198882A1, “Stable liposomes or micelles comprising a sphinolipid and a peg-lipopolymer” (priority 2003, published 2006).

Key:
[1] = Partition in the two phases of the Dole system; format: physicochemical
[2] = Partition in the two phases of the Dole system; format: physicochemical; remark: listed apart in the source
Protocol: The distribution of the C18 sphingosine-based ceramides with different acyl chain lengths and of DMS between the polar phase and respectively less polar phase (as defined below) of the Dole two phase system was determined. […] The different ceramides included: short (C2 Cer and C4 Cer), medium (C6 Cer and C8 Cer), long (C16 Cer). […] In: Liposome Technology 2nd Edn., G Gregoriadis (Ed.) CRC Press, Boca Raton, 1993, vol. 1, pp: 527-616]. The amount of each of the lipids used in each of the two phases was measured by thin-layer chromatography (TLC). For ceramide quantification TLC was developed in a solvent system containing chloroform/methanol (95:5 v/v). For DMS quantification TLC was developed in a solvent system containing chloroform/methanol/ammonia (89/9/2 v/v). Further, the TLC plate was sprayed with Copper sulfate reagent composed of 100 g anhydrous copper sulfate containing 80 ml of phosphoric acid (85%), %) dissolved in 600 ml of DDW. Copper sulphate reagent was applied to the plates by spraying, then heated and lipids appeared as dark brown spot. […] Quantity of ceramides in each phase was calculated from a standard curve of appropriate ceramide. […] (1993)Supra]. The distribution between the two Dole system phases was determined by the equation (as exemplified for ceramide): [formula] [formula] […]

In the case of “N-carbamyl-poly-(ethylene glycol methyl ether)-1,2-distearoyl-sn-glycero-3-phosphoethanolamine triethyl ammonium salt [^2kPEG-DSPE]”, the “Liposome formation (being a liposome forming lipid by itself)” value [1] is reported as “No”, the “% of lipid in heptane-rich upper phase” value [2] is reported as 0% and the “% of lipid in isopropanol/water lower phase” value [2] is reported as 100%.
